Laboratory results reported in publication PMC3522735, “Virtual Screening and Biological Evaluation of Inhibitors Targeting the XPA-ERCC1 Interaction” (2012).
pKd: −log10 of the molar value.

Protein sequences, listed by entry. Tags and fused reporters are not part of them. Residues count along the entry.
UniProt P07992, 92-214 limits assumed: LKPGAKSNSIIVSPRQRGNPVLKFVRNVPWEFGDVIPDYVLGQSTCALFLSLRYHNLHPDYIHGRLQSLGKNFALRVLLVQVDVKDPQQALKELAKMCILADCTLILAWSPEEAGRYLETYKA

Target: ERCC1 (Homo sapiens, UniProt P07992)
Test: intrinsic tryptophan fluorescence quenching (excitation […] nm)

SMILES	pKd
O=c1c([N+](=O)[O-])c(-c2ccc([N+](=O)[O-])cc2)oc2ccc([N+](=O)[O-])cc12	4.18
O=C(/C=C/c1ccc([N+](=O)[O-])s1)Nc1ccc([N+](=O)[O-])cc1[N+](=O)[O-]	4.56
